{"sequences": {"note": "The chains behind the UniProt entries cited, without tags or fusion partners. Where a name states a change or a piece, a line headed by the entry shows the natural chain unless it says otherwise.", "UniProt P10275": "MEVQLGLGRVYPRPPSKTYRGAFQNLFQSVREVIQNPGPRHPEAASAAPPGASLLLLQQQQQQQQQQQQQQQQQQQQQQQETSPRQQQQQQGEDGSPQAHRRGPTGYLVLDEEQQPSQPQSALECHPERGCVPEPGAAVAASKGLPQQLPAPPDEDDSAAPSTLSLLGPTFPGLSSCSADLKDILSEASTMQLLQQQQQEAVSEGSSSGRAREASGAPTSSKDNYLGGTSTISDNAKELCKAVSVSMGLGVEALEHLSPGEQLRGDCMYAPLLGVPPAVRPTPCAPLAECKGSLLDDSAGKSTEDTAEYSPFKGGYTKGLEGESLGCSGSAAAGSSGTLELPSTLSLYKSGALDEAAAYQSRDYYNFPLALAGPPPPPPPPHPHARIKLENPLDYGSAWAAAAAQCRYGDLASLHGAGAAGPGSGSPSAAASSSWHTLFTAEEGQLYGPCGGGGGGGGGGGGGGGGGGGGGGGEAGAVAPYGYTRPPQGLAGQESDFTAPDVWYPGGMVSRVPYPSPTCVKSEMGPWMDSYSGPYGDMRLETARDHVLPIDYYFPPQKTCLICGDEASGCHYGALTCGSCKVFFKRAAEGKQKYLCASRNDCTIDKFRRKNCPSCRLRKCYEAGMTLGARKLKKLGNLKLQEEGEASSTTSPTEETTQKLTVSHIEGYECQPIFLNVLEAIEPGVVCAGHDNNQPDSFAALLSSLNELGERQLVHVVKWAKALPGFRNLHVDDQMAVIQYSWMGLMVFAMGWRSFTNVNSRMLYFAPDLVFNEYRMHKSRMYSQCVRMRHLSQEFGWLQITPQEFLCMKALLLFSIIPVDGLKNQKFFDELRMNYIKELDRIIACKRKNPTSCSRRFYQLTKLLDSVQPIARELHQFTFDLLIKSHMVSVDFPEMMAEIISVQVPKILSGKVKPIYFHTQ"}, "source": "ChEMBL document CHEMBL4825767", "about": "“Development of 2-(5,6,7-Trifluoro-1H-Indol-3-yl)-quinoline-5-carboxamide as a Potent, Selective, and Orally Available Inhibitor of Human Androgen Receptor Targeting Its Binding Function-3 for the Treatment of Castration-Resistant Prostate Cancer” (J Med Chem, 2021)", "target": "Androgen receptor (Homo sapiens, UniProt P10275)", "data": [{"smiles": "Fc1cc(Cl)c2[nH]cc(-c3ccc4ccccc4n3)c2c1", "values": [{"measurement": "IC50", "value": 100, "unit": "nM"}]}]}
